In patent US7531500B2, “Preventing airway mucus production by administration of EGF-R antagonists” (The Regents of the University of California, priority 1998, dated 2009):

Legend:
pathogen-free rats = assay: Goblet cell production in pathogen-free rats after tracheal instillation of TNFα and EGF-R ligands; format: in vivo, rat; settings: intratracheal instillation 200 ng
Protocol: Healthy rats. Rats were anesthetized with methohexital sodium (Brevital sodium, 50 mg/kg, i.p.; Eli Lilly & Co., Indianapolis, Ind.) and allowed to breathe spontaneously. To determine whether TNFα up-regulates EGF-R in airways, TNFα (200 ng, 100 μl) was instilled into the trachea and the animals were euthanized 24 h later. To examine whether EGF or TGFα induces goblet cells in airway epithelium, EGF (600 ng, 100 μl) or TGFα (rat synthetic TGFα, 250 ng, 100 μl; Sigma, St Louis, Mich.) was instilled into the trachea either alone or 24 h after the instillation of TNFα (200 ng, 100 μl), and the animals were euthanized 48 h later. In each study, sterile PBS (100 μl) was instilled into the trachea as control. […]
Cell analysis. We counted the total number of epithelial cells by counting epithelial cell nuclei over 2 mm of the basal lamina with an oil immersion objective lens (×1000 magnification). The linear length of the basal lamina under each analyzed region of epithelium was determined by tracing the contour of the digitized image of the basal lamina. […]
Quantification of goblet cell production. Goblet cell production, was determined by the volume density of Alcian blue/PAS-stained mucosubstances on the mucosal surface epithelium using a semi-automatic imaging system described elsewhere (Weber et al. (1984) Science 224:294-297). […]

NCI-H292 cells = assay: Alcian blue/PAS staining of NCI-H292 cells for mucin glycoproteins; format: cell-based, human; settings: TNFα 20 ng/ml; EGF, TGFα each 25 ng/ml
Protocol: Cell culture. A human pulmonary mucoepidermoid carcinoma cell line, NCI-H292 cells, were grown in RPMI11640 medium containing 10% fetal bovine serum, penicillin (100 U/ml), streptomycin (100 μg/ml) at 37° C. in a humidified 5% CO2 water-jacketed incubator. When confluent, cells were incubated with EGF (recombinant human EGF, 25 ng/ml, Genzyme, Cambridge, Mass.), TGFα (recombinant human TGFα, 25 ng/ml, Qenzyme), TNFα (recombinant human TNFα, 20 ng/ml, Genzyme), EGF (25 ng/ml) plus TNFα (20 ng/ml) or TGFα (25 ng/ml) plus TNFα (20 ng/ml) for 12 h, 24 h or 48 h. In inhibition studies with an EGF-R tyrosine kinase inhibitor, BIBX1522 (10 μg/ml, generously provided by Boehringer Ingelheim Inc., Ingelheim, Germany), cells were pretreated with BIBX1522 30 min before adding growth factors. After incubation, cells grown in a T-75 flask were used for total RNA extraction or protein extraction, and 8-chamber slides were used for Alcian blue/PAS-staining to visualize mucins.

TNFα: recombinant human tumor necrosis factor alpha (Genzyme)
EGF-R protein in tracheal epithelium (pathogen-free rats): induced EGF-R protein | PAS-positive staining on incubation with mediator (NCI-H292 cells): did not affect staining
